# Molecular target: Prothrombin (Homo sapiens, UniProt P00734)
# Assay: Binding affinity towards human thrombin.
compound,measurement,value
Cc1cc(OCCNc2ccncc2)cc(OS(=O)(=O)c2ccccc2[N+](=O)[O-])c1,Ki,6 nM

# From ChEMBL document CHEMBL1146604, “Generation of ligand conformations in continuum solvent consistent with protein active site topology: application to thrombin” (J Med Chem, 2003)
